Patent US11731927B2, “Cocrystals of ubiquinol and compositions comprising them” (Center for Intelligent Research in Crystal Engineering, S.L., priority 2018, dated 2023)

Legend:
[1] = Stability study, comparative ubiquinol vs cocrystals: storage in a chamber, periodic analysis for ubiquinone and the form detected; assay type: physicochemical; conditions: relative humidity not controlled, "<" ubiquinone detected at least after the indicated days, ">" ubiquinone not detected yet
[2] = as above; assay type: physicochemical; conditions: 25° C.-57% HR; "<" ubiquinone detected at least after the indicated days; ">" ubiquinone not detected yet
Protocol: Powder X-Ray diffraction (PXRD) analyses were performed by sandwiching the powder samples between polyester films of 10 micrometres of thickness or polyamide (kapton) films of 15 micrometres of thickness and analysed in a PANalytical X′Pert PRO MPD q/q powder diffractometer of 240 millimetres of radius, in a configuration of convergent beam with a focalizing mirror and a flat sample transmission geometry, in the following experimental conditions: Cu Kα radiation (λ=1.5406 Å); Work power: 45 kV and 40 mA; Incident beam slits defining a beam height of 0.4 millimetres; Incident and diffracted beam 0.02 radians Soller slits; PIXcel detector: Active length=3.347°; 2θ/θ scans from 2 to 40° 2θ with a step size of 0.026° 2θ and a measuring time of 76 seconds per step.
The stability of the different forms has been studied under two experimental conditions. The samples were stored under both conditions inside a Series FD Binder chamber and they were analyzed periodically: • condition A: 25° C. and 57% of relative humidity; • condition B: 40° C. and 75% of relative humidity.
A saturated solution of sodium bromide salt (57% RH) and a saturated solution of sodium chloride (75% RH) were used to control relative humidity.
75% HR by indicating the form detected after the mentioned days. No ubiquinone was detected at least after 14 days.

Cocrystal Hydrate of Ubiquinol and 3,4-dihydroxybenzoic Acid [P58-III]
stability at 25° C. measured by controlling the moment when ubiquinone was detected [1]: >133 days
stability at 25° C. measured by controlling the moment when ubiquinone was detected [2]: >551 days
